These are literature values, as cited in paper PMC3997047.

Protein sequences, listed by entry. Tags and fused reporters are not part of them. Lines headed by an entry give the natural chain unless they say otherwise; changes in a name come on top.
UniProt P00581: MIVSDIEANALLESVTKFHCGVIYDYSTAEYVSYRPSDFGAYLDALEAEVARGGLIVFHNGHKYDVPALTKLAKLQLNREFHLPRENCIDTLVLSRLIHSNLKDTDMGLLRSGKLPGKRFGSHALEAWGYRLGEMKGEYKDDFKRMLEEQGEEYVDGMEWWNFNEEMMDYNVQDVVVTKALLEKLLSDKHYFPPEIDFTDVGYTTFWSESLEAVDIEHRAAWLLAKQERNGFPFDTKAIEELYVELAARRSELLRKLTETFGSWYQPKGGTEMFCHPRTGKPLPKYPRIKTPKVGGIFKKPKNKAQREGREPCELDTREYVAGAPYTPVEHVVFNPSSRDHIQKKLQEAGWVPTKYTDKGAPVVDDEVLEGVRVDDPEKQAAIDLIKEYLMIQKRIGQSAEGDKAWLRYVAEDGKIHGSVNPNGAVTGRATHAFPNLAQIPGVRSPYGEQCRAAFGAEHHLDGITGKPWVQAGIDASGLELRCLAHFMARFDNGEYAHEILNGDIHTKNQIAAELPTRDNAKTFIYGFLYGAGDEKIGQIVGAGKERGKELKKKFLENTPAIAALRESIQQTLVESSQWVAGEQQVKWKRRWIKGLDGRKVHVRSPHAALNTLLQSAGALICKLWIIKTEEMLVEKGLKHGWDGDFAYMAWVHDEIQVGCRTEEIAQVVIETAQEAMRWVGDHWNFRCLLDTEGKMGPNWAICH

In general, Kd refers to the equilibrium constant for the complex coming apart.

In this series the target is T7 gene 5 protein (DNA polymerase) (Escherichia phage T7) (UniProt P00581).

Consider Thioredoxin (from UniProt P0AA25), for which the Kd is 5 nM.
